Test system: glioma

SUVmax in normal brain tissues, range: 6.22-15.33
Substance: ^18F-FDG

— PMC4440444 (Theranostics, 2015)
